{"source": "patent US20090075888A1", "about": "“Cardiovascular and Brain Cell Therapy Using Intracellular Ryanodine Receptor Modulation by the Estrogen Receptor Beta” (University of North Texas Health Science Center at Fort …, priority 2007, published 2009)", "molecular_target": "mouse brain RyR2 (Mus musculus, UniProt E9Q401)", "assay": "Single-channel current recordings of RyR2 incorporated in artificial lipid bilayer", "details": "E2-liganded ERβ, approximately"}
{"molecule": "E2-liganded ERβ: ERβ protein bound to its ligand 17β-estradiol (E2) (protein, UniProt Q92731 1-530, looked up, bound to 17β-estradiol) Estrogen receptor beta: MDIKNSPSSLNSPSSYNCSQSILPLEHGSIYIPSSYVDSHHEYPAMTFYSPAVMNYSIPSNVTNLEGGPGRQTTSPNVLWPTPGHLSPLVVHRQLSHLYAEPQKSPWCEARSLEHTLPVNRETLKRKVSGNRCASPVTGPGSKRDAHFCAVCSDYASGYHYGVWSCEGCKAFFKRSIQGHNDYICPATNQCTIDKNRRKSCQACRLRKCYEVGMVKCGSRRERCGYRLVRRQRSADEQLHCAGKAKRSGGHAPRVRELLLDALSPEQLVLTLLEAEPPHVLISRPSAPFTEASMMMSLTKLADKELVHMISWAKKIPGFVELSLFDQVRLLESCWMEVLMMGLMWRSIDHPGKLIFAPDLVLDRDEGKCVEGILEIFDMLLATTSRFRELKLQHKEYLCVKAMILLNSSMYPLVTATQDADSSRKLAHLLNAVTDALVWVIAKSGISSQQQSMRLANLLMLLSHVRHASNKGMEHLLNMKCKNVVPVYDLLLEMLNAHVLRGCKSSITGSECSPAEDSKSKEGSQNPQSQ", "values": [{"measurement": "block of RyR (decrease)", "value": "5-10"}]}
